Laboratory results published in EP1142587A1 (priority 1998, dated 2000).

The compounds below were run on ddY male mice (assay: Analgetic action determined by hot plate test). Settings: intraperitoneally, 30 minutes after administration, 52°C hot plate.
Format: in vivo

In order of rising “ED50 value regarding analgetic effect” value:
1. O=C1NCN(c2ccccc2)C12CCN(Cc1ccc(Cl)nc1)CC2 [Example 15, 1'-(6-chloro-3-pyridyl)methyl-spiroimidazolidine-4,4'-piperidine-3-phenyl-5-on]  1.79 mg/kg
2. Cc1ccc(CN2CCC3(CC2)C(=O)NCN3c2ccccc2)cn1 [Example 16, 1'-(6-methyl-3-pyridyl)methyl-spiroimidazolidine-4,4'-piperidine-3-phenyl-5-on]  1.98 mg/kg
3. COc1ccc(CN2CCC3(CC2)C(=O)NCN3c2ccccc2)cc1 [Example 14, 1'-(4-methoxybenzyl)-spiroimidazolidine-4,4'-piperidine-3-phenyl-5-on]  2.99 mg/kg
4. Cc1ccc(CN2CCC3(CC2)C(=O)NCN3c2ccccc2)cc1 [Example 23, 1'-(4-methylbenzyl)-spiroimidazolidine-4,4'-piperidine-3-phenyl-5-on]  7.23 mg/kg
5. O=C1NCN(c2ccccc2)C12CCN(Cc1ccc(Br)cc1)CC2 [Example 18, 1'-(4-bromobenzyl)-spiroimidazolidine-4,4'-piperidine-3-phenyl-5-on]  7.76 mg/kg
6. O=C1NCN(c2ccccc2)C12CCN(Cc1cccnc1)CC2 [Example 17, 1'-(3-pyridyl)methyl-spiroimidazolidine-4,4'-piperidine-3-phenyl-5-on]  15.1 mg/kg

What follows are compounds tested on Mice (assay: Influence on locomotor activity). Settings: intraperitoneally, measured for 2 hours with infrared sensor.

“1'-(2-naphtylmethyl)-spiroimidazolidine-4,4'-piperidine-3-phenyl-5-on” was tested, and the “effect on locomotor activity” value was “no effect on locomotor activity”.
